This is an account of results in publication PMC9966338, “Inhibitory Potential of α-Amylase, α-Glucosidase, and Pancreatic Lipase by a Formulation of Five Plant Extracts: TOTUM-63” (International Journal of Molecular Sciences, 2023).

Chains of the proteins cited; added tags and fusions are not shown. Lines headed by an entry give the natural chain unless they say otherwise; changes in a name come on top.
UniProt P53341: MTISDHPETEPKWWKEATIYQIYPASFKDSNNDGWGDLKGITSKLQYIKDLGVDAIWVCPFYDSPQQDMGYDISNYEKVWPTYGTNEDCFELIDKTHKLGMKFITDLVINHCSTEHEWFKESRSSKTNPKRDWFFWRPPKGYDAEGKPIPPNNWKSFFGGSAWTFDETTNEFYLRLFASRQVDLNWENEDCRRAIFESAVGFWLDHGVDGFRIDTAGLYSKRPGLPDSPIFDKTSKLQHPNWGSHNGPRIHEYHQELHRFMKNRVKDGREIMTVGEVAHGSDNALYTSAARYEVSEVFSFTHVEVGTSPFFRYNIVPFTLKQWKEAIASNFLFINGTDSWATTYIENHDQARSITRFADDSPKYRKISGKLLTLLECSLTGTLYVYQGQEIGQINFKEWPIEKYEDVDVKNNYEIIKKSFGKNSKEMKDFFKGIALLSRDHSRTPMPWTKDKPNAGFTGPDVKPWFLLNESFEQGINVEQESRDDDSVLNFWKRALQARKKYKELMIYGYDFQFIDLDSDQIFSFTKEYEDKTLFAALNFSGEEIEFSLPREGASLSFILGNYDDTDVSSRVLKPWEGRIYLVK

This test has as its target T1, α-Glucosidase (maltase from Saccharomyces cerevisiae) (Saccharomyces cerevisiae, UniProt P53341).
T1 construct: purchased Merck/Sigma-Aldrich
Put plainly: biochemical. An excerpt: Chrysanthellin B was purchased from Extrasynthese (Genay, France). 2-(N-morpholino)-ethanesulfonic acid (MES) buffer was purchased from ThermoFisher Scientific (Waltham, Massachusetts, USA). NaN3 was obtained from Carlo Erba Reagents (Val-de-Reuil, France). Pure water was obtained using an Evoqua ultra-pure water production system (Water Technologies, Günzburg, Germany). The RED-NHS protein labeling kit was from NanoTemper Technologies (Munich, Germany).
α-Glucosidase hydrolytic activity was assessed by monitoring the conversion of p-nitrophenyl-α-D-glucopyranoside (PNPg) into p-nitrophenol (PNP). PNP levels were quantified at 405 nm. […] A series of PNP dilutions in buffer was used to generate the standard curve to convert PNP absorbance values into concentrations. The final α-glucosidase concentration corresponded to an activity of 30 µM of PNP/min for negative control without inhibitor. In each microplate well, 20 µL of test products diluted in a 50:50 (v:v) water:ethanol mixture (or 20 µL of this solvent mixture for the negative controls), 20 µL of α-glucosidase in buffer (or 20 µL of buffer for the blanks), and 100 µL of buffer were incubated in a microplate reader at 37 °C for 10 min. […] A FLUO Star Omega (BMG LabTech, Champigny sur Marne, France) 96-well microplate reader, thermostatically controlled at 37 °C, was used to measure the absorbance at 405 nm, every minute for 30 min. […]

For the compound `O=C(/C=C/C=C/c1ccc2c(c1)OCO2)N1CCCCC1` [Piperine], the IC50 (in general, the concentration that gives 50% inhibition) is 3.15 µM.
